In PubChem BioAssay AID680 (PCMD, 2007):
The list shows a part of the results, in another mix than the full data. Calls of active or inactive are those of the source. No stated cut-off is given here; in the data, active means inhibition above about 20% (passing the limit was not always enough); inactive means the rest.

Chains of the proteins cited; added tags and fusions are not shown.
UniProt P03951, whole entry, looked up: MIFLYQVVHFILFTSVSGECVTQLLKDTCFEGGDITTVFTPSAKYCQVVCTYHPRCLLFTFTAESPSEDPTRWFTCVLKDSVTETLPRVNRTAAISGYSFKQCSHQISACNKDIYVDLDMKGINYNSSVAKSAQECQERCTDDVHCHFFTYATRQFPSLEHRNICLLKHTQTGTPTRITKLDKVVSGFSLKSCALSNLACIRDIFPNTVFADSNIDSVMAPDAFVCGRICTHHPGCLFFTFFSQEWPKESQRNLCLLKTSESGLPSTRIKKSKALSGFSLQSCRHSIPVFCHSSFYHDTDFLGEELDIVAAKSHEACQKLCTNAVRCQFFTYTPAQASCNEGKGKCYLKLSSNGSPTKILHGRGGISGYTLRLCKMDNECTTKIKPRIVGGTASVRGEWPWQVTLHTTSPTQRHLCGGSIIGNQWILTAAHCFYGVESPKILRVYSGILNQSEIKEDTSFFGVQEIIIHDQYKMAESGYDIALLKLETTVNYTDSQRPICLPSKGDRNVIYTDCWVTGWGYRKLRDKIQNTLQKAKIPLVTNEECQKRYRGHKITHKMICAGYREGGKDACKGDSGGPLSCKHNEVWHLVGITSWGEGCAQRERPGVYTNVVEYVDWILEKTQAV

molecular target: Coagulation factor XI (Homo sapiens) (UniProt P03951); assay: FXIa protease inhibitors in compound pools, primary screen, biochemical, 10-compound mixtures (AID 680); conditions: purified FXIa, fluorogenic substrate, pooled mixtures; at 5 µM; hits give high values;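 further: each value is inhibition by a whole ten-compound pool holding the compound; 0% = enzyme with no mixture and 100% = wells lacking enzyme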

Row | Structure (SMILES) | inhibition
1 | Cc1c2non([O-])c-2c(C)[n+](=O)[n+]1[O-] | inactive: 4.2%
2 | CCc1nc2c(n1)c1c(non1O)c1c2no[n+]1[O-] | inactive: 2.02%
3 | O=P(Nc1nccs1)(c1ccccc1)c1ccccc1 | inactive: -1.48%
4 | c1nnnn1CCn1cnnn1 | inactive: 3.35%
5 | O=C(OC1CN2CCC1CC2)c1cccc(Cl)c1 (stereo not given) | inactive: 5.18%
6 | COC(=O)c1cc2c(s1)N=C(c1ccccc1)N(C)P2(=O)N1CCOCC1 (stereo not given) | inactive: 42%
7 | O=P1(Nc2nc3ccc(Cl)cc3s2)COc2ccccc2O1 (stereo not given) | inactive: 7.66%
8 | Cc1cccc(OCC(=O)OC2CN3CCC2CC3)c1 (stereo not given) | inactive: 7.7%
9 | CCOP1(=S)c2c(C)nn(CCC#N)c2N=C(c2ccccc2F)N1C (stereo not given) | inactive: -8%
10 | O=P(Nc1nccs1)(c1ccccc1)c1nc2ccccc2s1 (stereo not given) | inactive: 3.68%
11 | CCOP1(=S)c2c(C)nn(CCC#N)c2N=C(c2ccc(F)cc2)N1C (stereo not given) | inactive: 0.67%
12 | Cc1nn(-c2ccccc2)c2c1P(=O)(N1CCOCC1)N(C)C(c1ccccc1)=N2 (stereo not given) | inactive: 3.04%
13 | O=P1(Nc2ncccn2)COc2ccccc2OC1 | inactive: -0.245%
14 | O=P1(Nc2ccc(Br)cn2)COc2ccccc2OC1 | inactive: 3.97%
15 | Cc1ccc(OCC(=O)OC2CN3CCC2CC3)cc1 (stereo not given) | inactive: 3.26%
16 | O=P1(Nc2ccccn2)COc2ccccc2OC1 | inactive: 7.19%
17 | Clc1n[nH]nc1-c1nn[nH][15n]1 | inactive: 17.3%
18 | COP1(=S)c2c(C)nn(CCC#N)c2N=C(c2ccc(F)cc2)N1C (stereo not given) | inactive: 4.6%
19 | O=C(COc1ccccc1)OC1CN2CCC1CC2 (stereo not given) | inactive: 10.4%
20 | O=C(OC1CN2CCC1CC2)C12CC3CC(CC(C3)C1)C2 (stereo not given) | inactive: 3.45%
